# Assays:
# Sequences of proteins named here, by UniProt entry; tags and fusion partners are left off. Residues count along the entry.
# UniProt O95563, 2-127 limits assumed: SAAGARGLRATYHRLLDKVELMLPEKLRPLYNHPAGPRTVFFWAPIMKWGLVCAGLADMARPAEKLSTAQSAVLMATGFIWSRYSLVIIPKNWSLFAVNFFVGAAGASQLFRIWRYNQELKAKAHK
# UniProt P0DKB6, 2-136 limits assumed: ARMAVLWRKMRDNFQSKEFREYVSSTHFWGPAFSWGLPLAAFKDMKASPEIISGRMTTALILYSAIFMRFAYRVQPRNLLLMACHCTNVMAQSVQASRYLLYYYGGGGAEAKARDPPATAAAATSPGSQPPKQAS
# [1] = biological target: human MPC1L/MPC2 hetero-dimer (Homo sapiens, UniProt O95563+P0DKB6); assay: Inhibition of [14C]-pyruvate homo-exchange in MPC1L/MPC2 proteoliposomes; type: biochemical; settings: read-out: IC50 of pyruvate transport inhibition, 50 μM [14C]-pyruvate homo-exchange, mean ± s.d., listed as compound 2
# human MPC1L/MPC2 complex = human MPC1L/MPC2 complex (Homo sapiens, UniProt O95563+P0DKB6); assay: CPM thermostability shift assay, purified MPC1L/MPC2; type: binding; settings: inhibitor 100 μM
# Experimental: The assessment of ligand binding was performed via shifts in protein thermostability upon binding using thermal denaturation on a rotary quantitative PCR (qPCR) instrument (Qiagen Rotor-Gene Q 2plex HRM, Venlo, Netherlands), as previously described. In this method, cysteine residues, buried within the protein structure, become solvent-exposed during denaturation in a temperature ramp and then react with 7-diethylamino-3-(4-maleimidophenyl)-4-methylcoumarin (CPM) to form fluorescent-adducts. Briefly, a CPM working solution was prepared by diluting the CPM stock (5 mg/mL in dimethyl sulfoxide) 50-fold into assay buffer (20 mM Tris–HCl, pH 7.4, 150 mM NaCl, 0.1% (w/v) LMNG, 0.1 mg/mL TOCL) and incubated for 10 min at room temperature. In each analysis, performed in duplicates or triplicates, 3 μg of purified MPC was diluted into 45 μL of assay buffer containing the desired concentration of the inhibitor then incubated for 10 min on ice. Next, 5 μL of the CPM working solution were added. Samples were incubated on ice for an additional 10 min then subjected to a temperature ramp of 5.6 °C/min. The fluorescence increase was monitored with the HRM channel of the instrument (excitation at 440–480 nm, emission at 505–515 nm). Unfolding profiles were analysed with the Rotor-Gene Q software 2.3, and the peaks of their derivatives were used to determine the apparent melting temperature.
structure (smiles),measurement,setting,value
N#CC(=Cc1ccc(-c2ccccc2)o1)C(=O)O,IC50,[1],12.4 nM
same,"∆Tm, CPM assay (thermal shift compared to no-ligand control)",human MPC1L/MPC2 complex,12.1 ± 1.1 °C
same,"Tm, CPM assay","human MPC1L/MPC2 complex; unliganded 51.3 ± 0.2, mean ± s.d., 3 biological repeats",63.4 ± 0.9 °C
